Data reported in article PMC10303687.

Legend:
[1] = target: MDM2_(M. trossulus) SWIB domain (bay mussel (Mytilus trossulus)); assay: fluorescence polarisation; displacement: FITC-labeled human p53TAD 15–26 (6 or 10 nM) and MDM2 constant, dilution series of unlabeled peptide; K D calculated from IC50; room temperature, same buffer as the kinetics
[2] = target: MDM2_(H. sapiens) SWIB domain (human (Homo sapiens)); assay: stopped-flow fluorescence kinetics; 10°C, 20 mM sodium phosphate pH 7.4, 150 mM NaCl, 1 mM TCEP; Trp23 emission; MDM2 constant at 0.5–2 μM, p53TAD varied 1–10 μM for k on; k off from displacement of the 1 μM:1 μM complex by 10–20 μM dansylated human p53TAD peptide; K D = k off/k on
[3] = target: MDM2_(H. sapiens) SWIB domain (human (Homo sapiens)); assay: fluorescence polarisation; displacement: FITC-labeled human p53TAD 15–26 (6 or 10 nM) and MDM2 constant, dilution series of unlabeled peptide; K D calculated from IC50; room temperature, same buffer as the kinetics

p53TAD_(M. trossulus) (peptide) was tested, and the Kd [1] was 15000 nM.

In the case of “p53TAD_(H. sapiens)^15–26 (from UniProt P04637 15-26) (peptide)”, the Kd [2] is reported as 11 nM and the Kd [3] is reported as 18 nM.

For p53TAD_(D. rerio)^N26L (peptide), the Kd [2] was 190 nM, the koff [2] was 1.4 s⁻¹ and the kon [2] was 7.4e+06 M⁻¹ s⁻¹.
